In PubChem BioAssay AID720511 (Broad Institute, 2013) one finds activity (quench increase) data, which are given here for 70 molecules.

The list shows a part of the results, in another mix than the full data. The source made the active and inactive calls.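 Rule for the calls: active = mean added fluorescence quench of at least 8% versus neutral control, with both replicates also reaching 8%; inconclusive = only one of the mean or replicate conditions met; inactive = mean below 8% and not both replicates reaching 8%.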

This experiment can be described thus: F508del CFTR correction, initial screen, CFBE line, single point (AID 720511).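 Note: cells transiently co-express mutant CFTR-F508del with the halide-sensitive YFP; corrector assay measuring rescue of mutant channel to the surface after 24 h compound exposure.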 To be noted: CFBE cells, YFP halide quenching, at 7.58 µM, active compounds read high, % fluorescence drop versus neutral controls, stimulated with forskolin plus potentiator P3.
For `CC(=O)NC(SC(=S)N(C)C)C(Cl)(Cl)Cl` (stereo not given), the activity (quench increase) is inactive: -3.73%.
For `CN(C)C1(CNC(=O)c2ccc(S(C)(=O)=O)cc2)CCCCC1`, the activity (quench increase) was inactive: -1.9%.
Consider `O=C(/C=C/c1ccccc1)OC1CN2CCC1CC2` (stereo not given), for which the activity (quench increase) is inactive: 2.78%.
Under `CCCC1OP(=O)(Nc2ccccc2)OCC1CC` (stereo not given) stands inactive: -0.614%; under `CC1CCC(C(C)C)C(OP(=O)(Nc2ccccn2)c2ccccc2)C1` (stereo not given), inactive: -1.41%.
As to `Cc1ccc(C(=O)OC2CN3CCC2CC3)cc1` (stereo not given), the activity (quench increase) was inactive: 1.05%.
As to `Nc1cccc([As](=O)(O)c2ccccc2)c1`, the activity (quench increase) was inactive: -0.78%.
With `O=[As](O)(c1cccs1)c1cccs1`, the activity (quench increase) was inactive: -1.15%.
Under `NS(=O)(=O)c1cccc(NC(=O)COC(=O)C(O)(c2ccccc2)c2ccccc2)c1` stands inactive: -1.33%; under `Cc1ccc(S(=O)(=O)N(CCCN)CCCc2c(C)nc(N)[nH]c2=O)cc1`, inactive: 3.17%; under `O=P1(N(CCCl)CCCl)NCCC(C(F)(F)F)O1` (stereo not given), inactive: 5.23%.
Turning to `CC(C)(C)C(=O)NC(Sc1ncccn1)C(Cl)(Cl)Cl` (stereo not given), the activity (quench increase) is inactive: 2.99%.
Under `CCC1=CC2Cc3nc4ccc(Cl)cc4c(N)c3C(C1)C2` (stereo not given) stands inactive: -11%; under `CCOP(=O)(NC(=NC(C)c1ccccc1)NC(C)c1ccccc1)OCC` (stereo not given), inactive: -2.62%; under `CCOP(=O)(Nc1ccc(C)cn1)OCC`, inactive: -2.41%.
Turning to `CN(CCCl)Cc1cc(Cl)c(NC2=NCCN2)c(Cl)c1`, the activity (quench increase) was inactive: 0.668%.
Under `CC(C)/C=N\N=C(\N)N[N+](=O)[O-]` stands inactive: 5.88%; under `CN(C(=O)Cc1ccc(Cl)c(Cl)c1)[C@@H]1CCCC[C@H]1N1CCCC1`, inactive: 0.917%; under `CN(C(=O)Cc1ccc(Cl)c(Cl)c1)C1CCCC[C@@H]1N1CCCC1` (stereo not given in full), inactive: 1.46%.
Next, `COc1ccccc1CNC(=O)COC(=O)C(O)(c1ccccc1)c1ccccc1`: inactive: 0.507%; `O=[As](O)(c1cccc(O)c1)c1cccc(O)c1`: inactive: -1.02%.
Under `O=C(OC1CN2CCC1CC2)c1ccc(Cl)cc1` (stereo not given) stands inactive: 0.241%; under `O=[As](O)(O)c1cccnc1`, inactive: 1.57%.
Regarding `COc1cc(C(=O)NCC2(N3CCOCC3)CCCCC2)cc(Cl)c1OC(C)C`, the activity (quench increase) was inactive: 1.94%.
Next, `CS(=O)(=O)c1ccc(Cl)c(NC(=O)COC(=O)C(O)(c2ccccc2)c2ccccc2)c1`: inactive: -0.559%.
Consider `Nc1cccc2c([As](=O)(O)O)cccc12`, for which the activity (quench increase) was inactive: 0.539%.
Next, `CCCOP(=S)(Nc1nc(N)cc(=O)[nH]1)OCCC`: inactive: -2.29%.
Under `Nc1ccccc1[As](=O)(O)c1ccccc1` stands inactive: -2.45%.
`O=C(O)COc1ccc([As](=O)(O)O)cc1[N+](=O)[O-]`: the activity (quench increase) is inactive: -0.05%.
Under `CCOP1(=S)c2c(C)nn(CCC#N)c2N=C(c2ccccc2F)N1C` (stereo not given) stands inactive: 0.632%; under `O=P(Nc1nccs1)(Oc1ccccc1)Oc1ccccc1`, inactive: 2.91%.
Next, `N#CCCN(C(=O)COC(=O)C(O)(c1ccccc1)c1ccccc1)c1ccc(F)cc1`: inactive: 0.958%.
Next, `CN(C(=O)Cc1ccccc1)[C@@H]1CC[C@]2(CCCO2)C[C@H]1N1CCCC1`: inactive: -2.6%.
For `CCOP1(=S)c2c(C)nn(CCC#N)c2N=C(c2ccc(F)cc2)N1C` (stereo not given), the activity (quench increase) is inactive: -0.358%.
Under `CN(C)C(=O)c1cc([N+](=O)[O-])cc2c1-c1c(cc([N+](=O)[O-])cc1[N+](=O)[O-])C2=O` stands inactive: -7.35%.
Under `CN(C(=O)Cc1ccc(Cl)c(Cl)c1)[C@H]1CC[C@@]2(CCCO2)C[C@@H]1N1CCCC1` stands inactive: 6.97%.
Under `NC(=O)Nc1ccc([As](=O)(O)O)cc1` stands inactive: 0.426%; under `[N-]=[N+]=NC1CCCCC1NC(=O)c1cc([N+](=O)[O-])cc([N+](=O)[O-])c1` (stereo not given), inactive: -0.955%.
As to `Cc1ccc(OP(=O)(Nc2ccc([N+](=O)[O-])cn2)Oc2ccc(C)cc2)cc1`, the activity (quench increase) was inactive: -1.83%.
Consider `Cc1ccc2nc3c(c(C)c2c1)CC(C(Cl)Cl)S3` (stereo not given), for which the activity (quench increase) is inactive: 0.706%.
Consider `O=[As](O)(c1ccc(O)cc1)c1ccccc1O`, for which the activity (quench increase) was inactive: -2.77%.
Turning to `C[As](=O)(O)c1cccc(C(=O)O)c1`, the activity (quench increase) is inactive: 3.41%.
On to `COc1cc(C(=O)NCC2(N3CCOCC3)CCCCC2)ccc1OCC(C)C`, for which the activity (quench increase) was inactive: 3.88%.
Under `CC(C)NC(=O)NP(=O)(Oc1ccccc1)Oc1ccccc1` stands inactive: -4.31%; under `O=C(OC1CN2CCC1CC2)c1cccc2[nH]cnc12` (stereo not given), inactive: 0.145%; under `COC(=O)C1(C)COP(=O)(N2CCCCCC2)OC1` (stereo not given), inactive: 2.46%.
Under `CC(C)c1ccc(OP(=O)(Nc2ccccn2)Oc2ccccc2F)cc1` (stereo not given) stands inactive: 0.475%; under `COc1ccc(CN2/C(=N\P(=O)(Oc3ccccc3)Oc3ccccc3)Cc3ccccc3C2C2CC2)cc1` (stereo not given), inactive: -0.77%.
Regarding `O=P1(N(CCCl)CCCl)Nc2ccccc2N1`, the activity (quench increase) is inactive: 0.642%.
With `O=P1(N(CCCl)CCCl)OCCCN1CCCl` (stereo not given), the activity (quench increase) is inactive: -0.963%.
Under `COc1ccc2nc(NP(=O)(c3ccccc3)c3ccccc3)sc2c1` stands inactive: -2.19%; under `COc1cc(I)ccc1[As](=O)(O)O`, inactive: -0.629%.
Under `Cc1c2c(nc3ccccc13)SC(C(Cl)Cl)C2` (stereo not given) stands inactive: -4.38%; under `Cc1cc(=O)[nH]c(N[N+](=O)[O-])n1`, inactive: 1.36%; under `O=[N+]([O-])c1cc(Oc2ccc([N+](=O)[O-])cc2C(F)(F)F)cc([N+](=O)[O-])c1`, inactive: 3.64%.
With `COc1ccc(N/C(=N/P(=O)(N2CCOCC2)N2CCOCC2)N2CCOCC2)cc1`, the activity (quench increase) is inactive: -3.92%.
Under `O=C(O)C(=O)c1ccc(N(CCCl)CCCl)cc1` stands inactive: 0.895%; under `O=C(Nc1ccncc1[N+](=O)[O-])c1ccc([N+](=O)[O-])cc1[N+](=O)[O-]`, inactive: -1.92%.
As for `COP1(=S)c2c(C)nn(CCC#N)c2N=C(c2ccc(F)cc2)N1C` (stereo not given), the activity (quench increase) was inactive: 0.616%.
Under `COC(=O)C1(C)COP(=O)(N2CCCC2)OC1` (stereo not given) stands inactive: 1.19%; under `O=C(OC1CN2CCC1CC2)c1cccc([N+](=O)[O-])c1` (stereo not given), inactive: -0.205%; under `CCOC(=O)c1ccc(NC(=O)C(C)(CCl)SC)cc1` (stereo not given), inactive: 3.66%.
On to `COP(=O)(OC)N1CC1c1ccccc1` (stereo not given), for which the activity (quench increase) was inactive: -2.36%.
As to `CCCCOc1ccc(C(=O)NCC2(N3CCCCC3)CCCCC2)cc1OC`, the activity (quench increase) was inactive: -1.95%.
Next, `CCOC(=O)Nc1ccc([As](=O)(O)O)c(O)c1`: inactive: -2.65%; `O=C(O)C(O)c1ccc(N(CCCl)CCCl)cc1` (stereo not given): inactive: 4.72%.
Under `O=P(Nc1ccccn1)(c1cccc2ccccc12)c1cccc2ccccc12` stands inactive: -3.08%; under `Cc1cc(SC(NC=O)C(Cl)(Cl)Cl)ncn1` (stereo not given), inactive: -1.69%; under `O=[N+]([O-])c1ccc(Nc2ccc(Oc3ccc([N+](=O)[O-])cc3[N+](=O)[O-])cc2)c([N+](=O)[O-])c1`, inactive: -1.42%.
Next, `CCOC(=O)Nc1cccc([As](=O)(O)O)c1`: inactive: 2.6%.
